Screening results deposited in PubChem BioAssay by National Center for Advancing Translational Sciences (NCATS).
miR-21 reporter – miR-21 reporter, rising signal. 340,000 tested, under 10 active. Potency, µM (highest dose often 38.3 µM), for the others: at the highest dose reporter change, positive = more light. HeLa miR-21 FLuc reporter, luciferase, 48 h. AID 2288; active = well fitted rising curve with a large enough effect; inconclusive = small, poorly fitted or top-dose-only effect; inactive = no such curve, though single readings can be large or run the other way;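 further: % of control where 0% means no effect; miR-21 action dims this reporter so a rising signal means less miR-21 action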
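HeLa miR-21-FLuc reporter line, endogenous miR-21; 2000 cells/well in DMEM/10% FBS; compound titration up to ~40uM final, 48 h, 37 degree Celsius; luciferase detection reagent, 15 min lysis, CCD luminescence.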
Nrf2 block – Nrf2 pathway inhibition; A549 ARE-Fluc reporter, luciferase luminescence, 18-24 h; 360,000 tested, 2.1% active; Potency, µM (highest dose often 46 µM), for inactives: top-dose activity change, negative = inhibition, hits mostly inhibitors; note: potency is the fitted concentration of half-maximal effect; % is set by controls: 0 for no effect and ±100 for the full control effect; nearly all actives have a fitted effect of over 60% in size
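Two sequential reads on A549 ARE_Fluc cells exposed to compound for 18-24 h: a CellTiter-Fluor fluorescence read for viability, then a luciferase luminescence read for Nrf2/ARE activity.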
Glioma ERSR ind – inducers of ER stress response in human glioma cells | U87-MG GRP78 promoter luciferase reporter, 16 h | Potency, µM, for inactives: at the highest dose activation, most hits filed as activators | 420,000 tested, 0.02% active | AID 602332; note: potency is the fitted concentration of half-maximal effect; series mostly up to about 76 µM; % of control where 0% means no effect; nearly all actives have a fitted effect of over 35% in size
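ERSR induction read as luciferase luminescence (Bright-Glo, 10 min at room temperature) in stably transfected human U87-MG glioma cells exposed to compounds for 16 h, using GRP78 as sensor.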
A549 tox – counter-screen for Nrf2 inhibitors: cytotoxicity in A549 cells; A549 ARE-Fluc cells, CellTiter-Fluor viability, 18-24 h; Potency, µM (series often up to 46 µM), for the others: at the highest dose activity change, negative = cytotoxicity, usual class: inhibitors; 390,000 tested, 0.16% active; AID 504648; note: potency is the fitted concentration of half-maximal effect; % is set by controls: 0 for no effect and ±100 for the full control effect
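A549 ARE-Fluc cells in 5% FBS OPTI-MEM, 5000 cells/well, rested 2 h then exposed to compounds in concentration-response for 18-24 h at 37 °C. Viability by CellTiter-Fluor fluorescence (Ex 405/Em 525) after 30 min; luciferase luminescence (BugLite, 15 min, RT) read afterwards.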
Nrf2 activator – Nrf2 pathway activation; Potency, µM (titrated, usually from 46.1 µM), for inactives: at the highest dose activation, most hits filed as activators; AID 624171; 410,000 tested, 0.31% active; AREc32 ARE-luciferase reporter (MCF7-derived line), luminescence, 24 h; note: potency is the fitted concentration of half-maximal effect; % of control where 0% means no effect; nearly all actives have a fitted effect of over 65% in size
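Each well held 1000 AREc32 cells, which were incubated with compound for 24 hr at 37 deg C after overnight attachment, and ARE reporter activity was quantified by firefly luciferase luminescence.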
Mito fusion yeast – blocks mitochondrial division or promotes mitochondrial fusion. S. cerevisiae fusion-defective mutant growth rescue, CellTiterGlo 48 h. Potency, µM (titrated, usually from 46.1 µM), for the others: top-dose growth rescue (activation), most hits filed as activators. 320,000 tested, 0.23% active; note: potency is the fitted concentration of half-maximal effect; % of control where 0% means no effect; nearly all actives have a fitted effect of over 45% in size
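Compounds are tested for their ability to restore growth of mitochondrial fusion-defective yeast strains at non-permissive 37C in YPEG medium over 48 hours. Viability is quantified by luciferase luminescence.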
* hit, by the source's call; ? = inconclusive; . = no result. Hits are enriched below; roughly 2.3% of the tested compounds scored in any of these assays. Calls come from the whole dose curve; as a rule, active = well fitted curve in the direction sought with a large enough effect; inconclusive = small, poorly fitted or top-dose-only effect, or another doubt; inactive = no such curve, though single readings can be large; an effect the other way counts as inactive or inconclusive.

[1] Cc1ccc(C2=Nc3ccccc3N(C(=O)c3ccccc3)C(C)C2)cc1 (stereo not drawn)
[2] CCOC(=O)C(C(C)=O)c1c(Br)c(O)c(O)c2c(C(=O)c3ccc(C)cc3)coc12 (stereo not drawn)
[3] c1ccc(-c2nc(N3CCCCCC3)nc(-n3ccnc3)n2)cc1
[4] c1ccc(-c2nc(N3CCN(c4ccccc4)CC3)nc(-n3ccnc3)n2)cc1
[5] COc1cc2c(cc1OC)C1=NC(=O)CN1C(SCc1ccccc1C)=N2
Screen / compound no. | 1 | 2 | 3 | 4 | 5
miR-21 reporter | -5% | ? | 1% | -7% | -6%
Nrf2 block | -13% | 7.3µM* | 3% | 4.6µM* | 9.2µM*
Glioma ERSR ind | -3% | ? | -3% | -1% | -2%
A549 tox | -1% | 8.2µM* | 7% | -24% | -15%
Nrf2 activator | 0% | 23% | 3% | 0% | 1%
Mito fusion yeast | 20µM* | 1% | -5% | 12% | 4%

[6] Cc1ccc(CSC2=Nc3ccccc3C3=NC(=O)CN23)cc1
[7] COc1ccc(OCC(=O)N2CCN(c3nnc(-c4ccc(C)cc4)c4ccccc34)CC2)cc1
[8] Cc1ccc(-c2nnc(N3CCN(C(=O)COc4cccc(C)c4)CC3)c3ccccc23)cc1
[9] O=C(COc1ccccc1)N1CCN(c2nnc(-c3ccccc3)c3ccccc23)CC1
[10] Cc1cccc(OCC(=O)N2CCN(c3nnc(-c4ccccc4)c4ccccc34)CC2)c1
Screen / compound no. | 6 | 7 | 8 | 9 | 10
miR-21 reporter | -37% | 7% | 29% | 19% | 22%
Nrf2 block | -3% | ? | ? | 21µM* | ?
Glioma ERSR ind | 2% | -2% | -6% | -2% | -4%
A549 tox | -11% | -28% | -26% | ? | -10%
Nrf2 activator | 5% | 0% | 2% | 4% | 8%
Mito fusion yeast | 7% | 18% | 13µM* | 3% | ?

[11] COc1ccc(OCC(=O)N2CCN(c3nnc(-c4ccccc4)c4ccccc34)CC2)cc1
[12] Cc1ccc(-c2nnc(N3CCCCCC3)c3ccccc23)cc1
[13] Cc1ccc(OCC(=O)N2CCN(c3nnc(-c4ccc(C)cc4)c4ccccc34)CC2)cc1
[14] CCOC(=O)C1C(CC)NC(=S)NC1(C)O (stereo not drawn)
[15] COc1ccc(C(=O)NNC(=O)C(=O)Nc2ccc(C)c(Cl)c2)cc1
Screen / compound no. | 11 | 12 | 13 | 14 | 15
miR-21 reporter | 27% | -5% | 29% | -1% | 0%
Nrf2 block | ? | 23µM* | 18µM* | -6% | 5.8µM*
Glioma ERSR ind | -3% | -2% | -4% | -3% | 2%
A549 tox | -11% | ? | ? | 1% | ?
Nrf2 activator | 2% | 0% | -1% | 2% | 0%
Mito fusion yeast | 3% | 0% | ? | -8% | 0%

[16] CCc1ccccc1NC(=O)C(CC)Sc1ncnc2c1sc1ccccc12 (stereo not drawn)
[17] CCOC(=O)c1c(C)[nH]c(C)c1S(=O)(=O)NCC1CCN(Cc2cccc(F)c2)CC1
[18] CC(C)Oc1ccc(CNC(=O)c2cccc(NC(=O)N3CCSc4ncccc43)c2)cc1
[19] CCOc1cc(N2CCOCC2)c(OCC)cc1NC(=O)c1cc(-c2ccco2)nc2ccccc12
[20] COc1ccc(-c2cc(C(=O)Nc3ccccc3N3CCOCC3)c3ccccc3n2)cc1OC
Screen / compound no. | 16 | 17 | 18 | 19 | 20
miR-21 reporter | -1% | -17% | 5% | 12% | 22%
Nrf2 block | . | 0% | 23µM* | 15µM* | 15µM*
Glioma ERSR ind | 6% | -4% | 0% | -3% | -4%
A549 tox | 2% | -2% | 4% | ? | -17%
Nrf2 activator | 0% | -1% | 3% | 4% | 4%
Mito fusion yeast | . | -1% | . | 5% | -4%

[21] O=C(Nc1ccccc1N1CCOCC1)c1cc(-c2ccncc2)nc2ccccc12
[22] Cc1cccc(NC(=O)CSc2nc3ccc(NC(=O)COc4ccccc4C)cc3s2)c1
[23] COc1ccc(Cl)cc1NC(=O)CCCn1c(=O)c2cccn2c2cccnc21
[24] COC1=C(Nc2ccc(O)cc2)C(=O)c2ccccc2C1=O
[25] COc1ccc(CN=C(N)N=C(N)N)cc1Cl
Screen / compound no. | 21 | 22 | 23 | 24 | 25
miR-21 reporter | 15% | -3% | -2% | -2% | 6%
Nrf2 block | ? | ? | 16µM* | 23µM* | 16µM*
Glioma ERSR ind | -4% | -1% | -4% | 1% | -2%
A549 tox | -8% | -18% | -1% | ? | -19%
Nrf2 activator | 3% | -1% | 3% | 0% | 0%
Mito fusion yeast | -30% | . | . | -7% | 1%

[26] CC(C)Oc1ccc(CN=C(N)N=C(N)N)cc1Cl
[27] COc1ccc(-c2c(C3C4C=CCC(C)C4C(=O)N3Cc3ccccc3)ccc3ccccc23)cc1OC (stereo not drawn)
[28] COc1ccc(C2C3C=CCC(c4ccccc4)C3C(=O)N2Cc2ccccc2)cc1Cl (stereo not drawn)
[29] CCOc1ccc(-n2c(Cc3ccccc3)nnc2SCc2nc(-c3cccs3)no2)cc1
[30] COc1ccccc1-c1noc(CSc2nnc(Cc3ccccc3)n2-c2ccc(C)c(C)c2)n1
Screen / compound no. | 26 | 27 | 28 | 29 | 30
miR-21 reporter | 13% | . | . | 1% | 3%
Nrf2 block | 15µM* | 21µM* | 21µM* | 18µM* | 23µM*
Glioma ERSR ind | -9% | -3% | ? | -3% | -5%
A549 tox | -17% | -15% | ? | ? | ?
Nrf2 activator | 0% | . | . | 6% | -3%
Mito fusion yeast | -5% | . | . | . | .

[31] COc1ccc(-c2noc(CSc3nnc(C)n3-c3ccc(C)c(C)c3)n2)c(OC)c1
[32] CCOc1ccc(S(=O)(=O)N2CCCCC2)cc1NC(=O)c1c(CC)noc1C
[33] C/C(=N\NC(=O)CSCc1ccc(Cl)cc1)c1ccc2c(c1)OCCO2
[34] COc1cc(OC)cc(-c2oc(=O)c3cc(OC)c(OC)cc3c2C#CCCCO)c1
[35] CC(=O)Nc1ccc2nc(-c3ccc(Br)o3)[nH]c2c1
Screen / compound no. | 31 | 32 | 33 | 34 | 35
miR-21 reporter | -3% | . | 2% | . | -51%
Nrf2 block | -29% | 22% | 16µM* | 6% | ?
Glioma ERSR ind | -3% | -3% | -5% | -6% | -4%
A549 tox | -3% | 9% | -7% | 7% | 3%
Nrf2 activator | 8% | 0% | 0% | 3% | 3%
Mito fusion yeast | . | 5% | -1% | 5% | -13%

[36] Cn1cccc1-c1nc2ccc(NC(=O)c3cccs3)cc2[nH]1
[37] O=C(Nc1ccc2nc(-c3ccc(Br)o3)[nH]c2c1)c1cccs1
[38] O=C(CCCN1C(=O)/C(=C/c2ccc(F)cc2)SC1=S)NCCCn1ccnc1
[39] C=C1C(=O)OC2C1CCC(C)=C1C(=O)C3OC3(C)C12 (stereo not drawn)
[40] Cc1ccc2nc(-c3ccc(O)c(O)c3)cn2c1
Screen / compound no. | 36 | 37 | 38 | 39 | 40
miR-21 reporter | -16% | -12% | 16% | . | -25%
Nrf2 block | 18µM* | 18µM* | 13% | 16µM* | ?
Glioma ERSR ind | -2% | 6% | -9% | -11% | -10%
A549 tox | -14% | ? | -19% | ? | 0%
Nrf2 activator | 3% | 7% | 26% | -3% | 10%
Mito fusion yeast | 5% | 0% | 0% | . | -5%

Reformatted: 4 of the compounds above.
[36] Cn1cccc1-c1nc2ccc(NC(=O)c3cccs3)cc2[nH]1
  miR-21 reporter: -16%
  Nrf2 block: 18µM*
  Glioma ERSR ind: -2%
  A549 tox: -14%
  Nrf2 activator: 3%
  Mito fusion yeast: 5%
[39] C=C1C(=O)OC2C1CCC(C)=C1C(=O)C3OC3(C)C12 (stereo not drawn)
  miR-21 reporter: .
  Nrf2 block: 16µM*
  Glioma ERSR ind: -11%
  A549 tox: ?
  Nrf2 activator: -3%
  Mito fusion yeast: .
[37] O=C(Nc1ccc2nc(-c3ccc(Br)o3)[nH]c2c1)c1cccs1
  miR-21 reporter: -12%
  Nrf2 block: 18µM*
  Glioma ERSR ind: 6%
  A549 tox: ?
  Nrf2 activator: 7%
  Mito fusion yeast: 0%
[38] O=C(CCCN1C(=O)/C(=C/c2ccc(F)cc2)SC1=S)NCCCn1ccnc1
  miR-21 reporter: 16%
  Nrf2 block: 13%
  Glioma ERSR ind: -9%
  A549 tox: -19%
  Nrf2 activator: 26%
  Mito fusion yeast: 0%

(cont.)
[41] Cc1ccc2nc(-c3ccccc3)cn2c1
[42] O=C(Nc1cccc(S(=O)(=O)NC2=NCCC2)c1)c1cc(F)c(F)c(F)c1F
[43] Cc1cc(Cl)ccc1Oc1nccc(N(C)C)c1C#N
[44] O=C(CSc1nncc2ccccc12)N1CCCCC1
Screen / compound no. | 41 | 42 | 43 | 44
miR-21 reporter | ? | . | -15% | -47%
Nrf2 block | 6.5µM* | 7% | 23µM* | 10µM*
Glioma ERSR ind | -13% | -1% | 2% | 2%
A549 tox | -1% | -6% | -17% | -3%
Nrf2 activator | -2% | 0% | 1% | 21%
Mito fusion yeast | -11% | 4% | 5% | 14%
